## Measured affinities in a library of Ab-91 heavy chain variants

Source: Engelhart et al. 2022 (doi:10.1038/s41597-022-01779-4), MIT Lincoln Laboratory and A-Alpha Bio; data file from the FLAb repository.

Target peptide (SARS-CoV-2 spike, HR2 region): PDVDLGDISGINAS

Ab-91 is the parent antibody, in scFv form: VL, then three GGGGS repeats, then VH. The light chain is unchanged in all variants.
VL: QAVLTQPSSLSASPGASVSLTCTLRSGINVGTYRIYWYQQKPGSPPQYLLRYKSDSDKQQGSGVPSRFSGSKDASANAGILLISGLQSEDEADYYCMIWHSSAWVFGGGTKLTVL
VH: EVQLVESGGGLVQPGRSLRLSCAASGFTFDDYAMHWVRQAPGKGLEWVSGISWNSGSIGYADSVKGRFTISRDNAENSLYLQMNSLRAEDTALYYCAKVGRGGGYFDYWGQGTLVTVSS

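The library (AAYL51) carries one to three amino acid substitutions per variant, with no insertions or deletions. Affinity was read by AlphaSeq, a pooled yeast mating assay with surface-displayed partners. The frequency of each diploid, read from paired DNA barcodes, reflects how well the two displayed proteins bind. Read counts were normalised to the haploid input and turned into Kd by a linear fit to BCL2-family pairs of known affinity, for each replicate. Mating was done three times.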

Positions count from residue 1 of the parent VH; G50V puts V in place of G.
Affinities are written as log10 Kd with Kd in nM; a lower number is a better binder.
A pair that was not seen in that replicate is written "n.d."; this usually means weak binding, but a binder can also be missed.
Parent in this assay: reference entry 1.86, copy in this library 0.88.
Background: pairings of library AAYL51 with three empty control strains gave a value in 21% of cases (median 4.54, 5th percentile 3.26). Values in that range, when seen in few replicates, are hard to tell from nonspecific mating. Also given: how often the same scFv was detected with the empty control strains, with their mean in brackets.

{"changes": "G50V/I58M/V99T", "log10 Kd, replicates": "4.85 n.d. n.d.", "control signals": "0/9"}
{"changes": "G26P", "log10 Kd, replicates": "n.d. 5.66 n.d.", "control signals": "3/9 (4.62)"}
{"changes": "K65W/G100C/G102V", "log10 Kd, replicates": "n.d. n.d. 4.06", "control signals": "0/9"}
{"changes": "V99C/G102H/Y108I", "log10 Kd, replicates": "5.76 5.84 3.57", "control signals": "1/9 (5.27)"}
{"changes": "F29I/Y32E/S52T", "log10 Kd, replicates": "n.d. 4.86 n.d.", "control signals": "1/9 (4.10)"}
{"changes": "G50S/R101I/D107H", "log10 Kd, replicates": "n.d. n.d. n.d.", "control signals": "1/9 (4.92)"}
{"changes": "T28G/Y60F/G103Q", "log10 Kd, replicates": "n.d. n.d. n.d.", "control signals": "1/9 (5.28)"}
{"changes": "D30E/Y32P/S63N", "log10 Kd, replicates": "n.d. n.d. 1.59", "control signals": "0/9"}
{"changes": "H35W/S57G/G100L", "log10 Kd, replicates": "4.17 5.26 5.58", "control signals": "5/9 (4.85)"}
{"changes": "Y32P/A33E/Y108H", "log10 Kd, replicates": "n.d. n.d. n.d.", "control signals": "1/9 (3.53)"}
{"changes": "G50W/N54P", "log10 Kd, replicates": "4.97 4.16 n.d.", "control signals": "6/9 (4.53)"}
{"changes": "Y32E/G59H/Y108E", "log10 Kd, replicates": "n.d. n.d. n.d.", "control signals": "1/9 (3.93)"}
{"changes": "I51A/W53G/D62T", "log10 Kd, replicates": "n.d. n.d. n.d.", "control signals": "0/9"}
{"changes": "Y32Q/G50K/R101G", "log10 Kd, replicates": "4.77 5.28 n.d.", "control signals": "3/9 (4.87)"}
{"changes": "T28H/G104F", "log10 Kd, replicates": "1.01 1.00 0.33", "control signals": "6/9 (5.20)"}
{"changes": "I51A/S52H/D62G", "log10 Kd, replicates": "5.05 n.d. n.d.", "control signals": "1/9 (4.27)"}
{"changes": "W53N/S55T/S57P", "log10 Kd, replicates": "n.d. n.d. 3.71", "control signals": "0/9"}
{"changes": "G103A/Y105V/F106Q", "log10 Kd, replicates": "n.d. n.d. n.d.", "control signals": "0/9"}
{"changes": "A33Q/G50W/F106A", "log10 Kd, replicates": "n.d. n.d. n.d.", "control signals": "1/9 (3.78)"}
{"changes": "N54H/G56W/I58W", "log10 Kd, replicates": "5.18 5.52 5.87", "control signals": "3/9 (4.85)"}
{"changes": "T28E/A33P/A61Q", "log10 Kd, replicates": "2.25 2.23 2.09", "control signals": "0/9"}
{"changes": "F29G/S55N/G103F", "log10 Kd, replicates": "5.45 5.24 n.d.", "control signals": "1/9 (5.05)"}
{"changes": "D31W/I51A/K65M", "log10 Kd, replicates": "n.d. n.d. n.d.", "control signals": "0/9"}
{"changes": "H35V/G50T", "log10 Kd, replicates": "3.13 n.d. 3.44", "control signals": "0/9"}

Excerpt, the first 2 entries:

{"changes": "G50V/I58M/V99T", "log10 Kd, replicates": "4.85 n.d. n.d.", "control signals": "0/9"}
{"changes": "G26P", "log10 Kd, replicates": "n.d. 5.66 n.d.", "control signals": "3/9 (4.62)"}